Legend:
[1] = target: T1, HA-tagged h.XGnRHR (hGnRHR with added XGnRHR COOH tail) (Homo sapiens, UniProt P30968); assay: Cell surface expression of HA-h.XGnRHR; assay type: cell-based, human/Xenopus laevis; details: HeLa, 10^−7 M GnRH, 37°C
T1 sequence (P30968 1-328): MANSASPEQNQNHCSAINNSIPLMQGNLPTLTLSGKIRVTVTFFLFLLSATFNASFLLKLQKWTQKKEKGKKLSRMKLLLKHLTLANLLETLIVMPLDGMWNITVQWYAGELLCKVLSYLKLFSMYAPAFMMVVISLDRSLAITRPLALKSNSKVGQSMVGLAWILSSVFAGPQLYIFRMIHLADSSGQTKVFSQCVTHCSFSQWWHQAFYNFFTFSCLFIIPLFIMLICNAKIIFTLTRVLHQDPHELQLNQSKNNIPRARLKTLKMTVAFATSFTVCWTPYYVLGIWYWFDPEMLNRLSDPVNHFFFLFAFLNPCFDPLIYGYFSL

HA-tagged hGnRHR [2] = target: T2, HA-tagged hGnRHR (Homo sapiens, UniProt P30968); assay: Cell surface expression of HA-hGnRHR; assay type: cell-based; details: HeLa, 10^−7 M GnRH, 37°C
T2 sequence (P30968 1-328): T1 sequence (P30968 1-328)

HA-tagged hGnRHR [3] = target: T2, HA-tagged hGnRHR; assay: Trafficking, anti-HA loading with agonist present; assay type: cell-based; details: HeLa; 10^−7 M GnRH with anti-HA, 0–60 min, 37°C

## gonadotropin-releasing hormone [GnRH]
[1]; after 18 h 10^−7 M IN3
  reduction in cell surface expression, IN3-pretreated cells: pronounced reduction
[1]; no IN3 pretreatment
  reduction in cell surface expression: reduced expression
HA-tagged hGnRHR [2]; after 18 h 10^−7 M IN3
  reduction in cell surface expression, IN3-pretreated cells: pronounced reduction
HA-tagged hGnRHR [2]; no IN3 pretreatment
  reduction in cell surface expression: did not measurably alter cell surface expression
HA-tagged hGnRHR [3]
  inclusion count (effect of agonist): increased

From publication PMC2740399 (American Journal of Physiology - Cell Physiology, 2009)
